Source: patent US9943484B2, “Preparation of polylactide-polyglycolide microparticles having a sigmoidal release profile” (PHARMATHEN S.A., priority 2013, dated 2018)
Converted amounts (≈) assume the structure as drawn.

Assay: physchem
Settings: pH 7.4, aqueous buffer

Work on Cc1nc2n(c(=O)c1CCN1CCC(c3noc4cc(F)ccc34)CC1)CCCC2 [risperidone] yielded a solubility of 220 µg/mL (≈ 536 µM).
